Test results as given in BindingDB's records for patent US10053458 (Korea Research Institute of Chemical Technology, 2018).

Amino acid sequences for entries named in this document (tags omitted). A change or cut given only in a name is not applied to a line headed by its entry.
UniProt Q9UM73: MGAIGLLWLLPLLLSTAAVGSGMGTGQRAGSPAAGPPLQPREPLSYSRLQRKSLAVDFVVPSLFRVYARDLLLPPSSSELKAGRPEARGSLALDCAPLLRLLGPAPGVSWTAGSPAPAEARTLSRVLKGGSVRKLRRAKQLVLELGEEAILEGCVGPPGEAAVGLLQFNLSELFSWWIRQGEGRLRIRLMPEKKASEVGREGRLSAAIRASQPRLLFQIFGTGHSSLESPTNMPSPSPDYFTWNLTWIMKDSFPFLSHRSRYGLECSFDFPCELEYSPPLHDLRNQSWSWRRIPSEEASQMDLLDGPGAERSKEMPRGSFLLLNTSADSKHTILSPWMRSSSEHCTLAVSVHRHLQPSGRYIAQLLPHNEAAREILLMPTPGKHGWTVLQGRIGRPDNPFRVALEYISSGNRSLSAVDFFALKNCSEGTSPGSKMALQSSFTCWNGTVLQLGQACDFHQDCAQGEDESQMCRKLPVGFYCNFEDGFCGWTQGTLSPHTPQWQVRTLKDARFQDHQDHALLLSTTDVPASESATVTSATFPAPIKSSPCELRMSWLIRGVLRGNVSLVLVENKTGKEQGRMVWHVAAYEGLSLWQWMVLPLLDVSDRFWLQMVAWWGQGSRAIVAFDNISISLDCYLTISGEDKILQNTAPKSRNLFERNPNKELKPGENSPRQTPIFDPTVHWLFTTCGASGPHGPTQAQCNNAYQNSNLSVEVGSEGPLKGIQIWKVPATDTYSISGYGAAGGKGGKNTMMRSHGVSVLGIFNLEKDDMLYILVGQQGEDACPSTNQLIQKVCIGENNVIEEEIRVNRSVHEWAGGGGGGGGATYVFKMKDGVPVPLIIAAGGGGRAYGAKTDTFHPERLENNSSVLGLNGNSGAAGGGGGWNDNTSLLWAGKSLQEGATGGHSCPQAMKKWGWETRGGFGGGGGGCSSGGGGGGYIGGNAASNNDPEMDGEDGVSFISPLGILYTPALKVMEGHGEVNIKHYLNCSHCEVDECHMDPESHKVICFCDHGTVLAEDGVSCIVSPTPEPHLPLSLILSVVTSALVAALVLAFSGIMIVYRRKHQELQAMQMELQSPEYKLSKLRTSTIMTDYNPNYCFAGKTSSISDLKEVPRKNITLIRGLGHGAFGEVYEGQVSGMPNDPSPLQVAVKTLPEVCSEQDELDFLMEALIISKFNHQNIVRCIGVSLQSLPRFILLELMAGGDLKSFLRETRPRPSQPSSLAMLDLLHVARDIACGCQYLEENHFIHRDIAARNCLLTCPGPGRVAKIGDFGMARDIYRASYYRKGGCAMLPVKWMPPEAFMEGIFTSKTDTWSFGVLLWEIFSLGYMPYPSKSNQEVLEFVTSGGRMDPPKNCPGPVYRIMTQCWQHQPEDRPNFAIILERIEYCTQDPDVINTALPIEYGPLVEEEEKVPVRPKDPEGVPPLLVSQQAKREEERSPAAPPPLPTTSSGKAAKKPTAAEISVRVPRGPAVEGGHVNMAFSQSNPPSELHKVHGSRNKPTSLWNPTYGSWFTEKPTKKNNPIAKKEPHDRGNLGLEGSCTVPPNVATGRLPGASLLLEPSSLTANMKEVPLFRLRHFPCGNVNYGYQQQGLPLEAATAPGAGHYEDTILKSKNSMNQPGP

Molecular target: ALK tyrosine kinase receptor (Homo sapiens, UniProt Q9UM73)

| IC50 [nM] | SMILES |
| --- | --- |
| < 10 | COc1cc2c(cc1Nc1ncc(Cl)c(Nc3ccccc3S(=O)(=O)C(C)C)n1)C1(CCCC1)CN(C(=O)C(F)(F)F)C2 [US10053458, 13] |
| < 10 | COc1cc2c(cc1Nc1ncc(Cl)c(Nc3ccccc3S(=O)(=O)C(C)C)n1)CCNC2C(C)C (configuration not stated) [US10053458, 28] |
| < 10 | COc1cc2c(cc1Nc1ncc(Cl)c(Nc3ccccc3S(=O)(=O)C(C)C)n1)C(=O)NCC2 [US10053458, 44] |
| < 10 | COc1cc2c(cc1Nc1ncc(Cl)c(Nc3ccccc3S(=O)(=O)C(C)C)n1)C(C)NCC2 (configuration not stated) [US10053458, 46] |
| < 10 | CCOc1cc2c(cc1Nc1ncc(Cl)c(Nc3ccccc3S(=O)(=O)C(C)C)n1)CN(CCO)CC2(C)C [US10053458, 93] |
| < 10 | CCOc1cc2c(cc1Nc1ncc(Cl)c(Nc3ccccc3S(=O)(=O)C(C)C)n1)CCNC2(C)C [US10053458, 99] |
| < 10 | CC(C)S(=O)(=O)c1ccccc1Nc1nc(Nc2cc3c(cc2OC(F)F)C(C)(C)NCC3)ncc1Cl [US10053458, 100] |
